# Assay results taken from patent US11129827B2 (priority 2017, dated 2021).
# Sequences of proteins named here, by UniProt entry; tags and fusion partners are left off.
# UniProt O00519, whole entry, looked up: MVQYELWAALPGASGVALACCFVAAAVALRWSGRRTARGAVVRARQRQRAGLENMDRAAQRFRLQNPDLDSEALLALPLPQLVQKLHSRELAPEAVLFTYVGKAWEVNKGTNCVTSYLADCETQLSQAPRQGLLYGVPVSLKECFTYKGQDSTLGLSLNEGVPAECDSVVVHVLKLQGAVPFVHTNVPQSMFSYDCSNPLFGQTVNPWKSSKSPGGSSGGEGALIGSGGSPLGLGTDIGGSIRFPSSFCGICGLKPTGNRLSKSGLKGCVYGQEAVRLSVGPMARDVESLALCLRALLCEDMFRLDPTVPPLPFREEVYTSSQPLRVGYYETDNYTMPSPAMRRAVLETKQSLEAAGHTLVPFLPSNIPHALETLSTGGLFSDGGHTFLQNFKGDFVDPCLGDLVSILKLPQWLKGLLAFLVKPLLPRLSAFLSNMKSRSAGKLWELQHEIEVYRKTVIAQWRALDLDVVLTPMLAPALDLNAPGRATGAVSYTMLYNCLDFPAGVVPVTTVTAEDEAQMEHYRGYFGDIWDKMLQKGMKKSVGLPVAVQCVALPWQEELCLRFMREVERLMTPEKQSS
# UniProt Q99685, whole entry, looked up: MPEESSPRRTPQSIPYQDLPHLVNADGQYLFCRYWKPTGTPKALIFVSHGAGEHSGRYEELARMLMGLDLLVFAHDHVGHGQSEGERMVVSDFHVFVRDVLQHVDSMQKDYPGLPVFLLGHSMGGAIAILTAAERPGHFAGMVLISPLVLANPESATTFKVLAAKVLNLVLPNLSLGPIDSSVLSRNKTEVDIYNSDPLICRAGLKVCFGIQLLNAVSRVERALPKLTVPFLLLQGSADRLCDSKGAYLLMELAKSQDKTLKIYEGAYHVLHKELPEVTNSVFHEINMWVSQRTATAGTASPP
# UniProt O35678, whole entry, looked up: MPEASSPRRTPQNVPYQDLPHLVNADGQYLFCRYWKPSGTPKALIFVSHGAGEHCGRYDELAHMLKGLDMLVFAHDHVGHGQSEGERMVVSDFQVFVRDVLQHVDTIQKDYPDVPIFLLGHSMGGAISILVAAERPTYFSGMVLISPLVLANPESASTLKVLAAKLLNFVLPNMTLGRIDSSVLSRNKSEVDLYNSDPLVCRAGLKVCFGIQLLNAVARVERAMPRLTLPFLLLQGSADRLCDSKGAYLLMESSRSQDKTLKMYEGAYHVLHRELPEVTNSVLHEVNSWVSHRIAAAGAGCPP
# UniProt O08914, whole entry, looked up: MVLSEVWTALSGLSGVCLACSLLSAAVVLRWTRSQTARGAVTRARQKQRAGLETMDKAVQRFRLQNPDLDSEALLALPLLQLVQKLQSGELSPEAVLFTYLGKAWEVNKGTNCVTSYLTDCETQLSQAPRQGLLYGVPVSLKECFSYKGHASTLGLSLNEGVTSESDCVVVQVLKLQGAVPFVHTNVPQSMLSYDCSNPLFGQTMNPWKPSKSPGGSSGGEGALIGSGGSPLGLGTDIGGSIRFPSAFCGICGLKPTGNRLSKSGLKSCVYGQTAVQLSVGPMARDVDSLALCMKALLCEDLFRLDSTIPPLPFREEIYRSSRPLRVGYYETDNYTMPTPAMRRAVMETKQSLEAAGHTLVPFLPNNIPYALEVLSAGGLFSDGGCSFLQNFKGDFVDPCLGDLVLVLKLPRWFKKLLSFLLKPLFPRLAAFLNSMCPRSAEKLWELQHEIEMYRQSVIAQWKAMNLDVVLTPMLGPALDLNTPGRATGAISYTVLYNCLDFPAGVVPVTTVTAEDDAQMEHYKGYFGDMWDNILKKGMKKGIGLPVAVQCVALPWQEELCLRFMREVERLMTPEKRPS
# Experiments:
# [1] = target: FAAH (Homo sapiens (Human), UniProt O00519); conditions: for FAAH (human) % inh. 1 μM / IC50: human prefrontal cortex or cell membrane fractions; for IC50: read-out: FAAH (human) IC50
# [2] = target: MAGL (Homo sapiens (Human), UniProt Q99685); conditions: for MAGL (human) % inh. (50 μM): 50 μM (stated in cell instead of 1 μM); for MAGL (human) % inh. 1 μM / IC50: human prefrontal cortex or cell membrane fractions; for IC50: read-out: MAGL (human) IC50; for MAGL (human) % inh. (10 μM): 10 μM (stated in cell instead of 1 μM)
# [3] = target: MAGL (Mus musculus (Mouse), UniProt O35678); experiment: Mouse brain proteomes from inhibitor treated mice (oral gavage, ABPP analysis); type: in vivo; conditions: 5 mg/kg oral gavage, C57Bl/6J mouse brain, 4 h following administration
# [4] = target: FAAH (Mus musculus (Mouse), UniProt O08914); experiment: as above; type: in vivo; conditions: 5 mg/kg oral gavage, C57Bl/6J mouse brain, 4 h following administration
Compound,FAAH (human) % inh. 1 μM [1],MAGL (human) % inh. (50 μM) [2],IC50 [1] [nM],MAGL (human) % inh. 1 μM [2],IC50 [2] [nM],MAGL (mouse) % inh. 5 mg/kg [3],FAAH (mouse) % inh. 5 mg/kg [4],FAAH (human) % inh. (10 μM) ([1]; 10 μM (stated in cell instead of 1 μM)),FAAH (human) % inh. (50 μM) ([1]; 50 μM (stated in cell instead of 1 μM)),MAGL (human) % inh. (10 μM) [2]
C[C@@H]1CN(Cc2cc(F)cc(C(F)(F)F)c2)CCN1C(=O)Oc1cncc(N)c1,A (% inhibition is greater than or equal to 75%),C (50 μM) (% inhibition is greater than or equal to 25% and less than 50%),,,,,,,,
C[C@@H]1CN(Cc2cccc(OC(F)(F)F)c2)CCN1C(=O)Oc1cncc(C#N)c1,A (% inhibition is greater than or equal to 75%),,< 100,A (% inhibition is greater than or equal to 75%),< 100,,,,,
Cc1c(CN2CCN(C(=O)Oc3cncc(C#N)c3)[C@H](C)C2)cccc1C(F)(F)F,A (% inhibition is greater than or equal to 75%),,< 100,A (% inhibition is greater than or equal to 75%),< 100,,,,,
CC(C)Oc1cc(CN2CCN(C(=O)Oc3cncc(C(N)=O)c3)CC2)ccc1Cl,A (% inhibition is greater than or equal to 75%),,< 100,A (% inhibition is greater than or equal to 75%),< 100,B (% inhibition is greater than or equal to 50% and less than 75%),A (% inhibition is greater than or equal to 75%),,,
Cc1c(C#N)cncc1OC(=O)N1CCN(Cc2cc(Cl)ccc2C(F)(F)F)CC1,A (% inhibition is greater than or equal to 75%),,< 100,A (% inhibition is greater than or equal to 75%),< 100,,,,,
Cc1c(CN2CCN(C(=O)Oc3cncc(N)c3)[C@H](C)C2)cccc1C(F)(F)F,A (% inhibition is greater than or equal to 75%),,,D (% inhibition is greater than or equal to 0% and less than 25%),,,,,,
C[C@@H]1CN(Cc2cccc(OC(F)(F)F)c2)CCN1C(=O)Oc1cncc(F)c1,A (% inhibition is greater than or equal to 75%),A (50 μM) (% inhibition is greater than or equal to 75%),< 100,,1000 to 10000,,,,,
CC(C)Oc1cc(CN2CCN(C(=O)Oc3cncc(N)c3)[C@@H](C)C2)ccc1Cl,,,,A (% inhibition is greater than or equal to 75%),,,,A (10 μM) (% inhibition is greater than or equal to 75%),,
C[C@H]1CN(Cc2ccc(Cl)c(C(N)=O)c2)CCN1C(=O)Oc1cncc(C(N)=O)c1,,,,B (% inhibition is greater than or equal to 50% and less than 75%),,,,,A (50 μM) (% inhibition is greater than or equal to 75%),
O=C(Oc1cncc(F)c1)N1CCN(Cc2ccc3c(c2)OC(F)(F)O3)CC1,A (% inhibition is greater than or equal to 75%),,,A (% inhibition is greater than or equal to 75%),,,,,,
NC(=O)c1cc(Cl)cc(CN2CCN(C(=O)Oc3cncc(C(N)=O)c3)CC2)c1,A (% inhibition is greater than or equal to 75%),,100 to 1000,A (% inhibition is greater than or equal to 75%),1000 to 10000,D (% inhibition is greater than or equal to 0% and less than 25%),D (% inhibition is greater than or equal to 0% and less than 25%),,,
C[C@@H]1CN(Cc2cc(F)cc(Cl)c2)CCN1C(=O)Oc1cncc(C(N)=O)c1,A (% inhibition is greater than or equal to 75%),,< 100,A (% inhibition is greater than or equal to 75%),100 to 1000,A (% inhibition is greater than or equal to 75%),A (% inhibition is greater than or equal to 75%),,,
CC(C)Oc1cc(CN2CCN(C(=O)Oc3cncc(N)c3)[C@H](C)C2)ccc1Cl,A (% inhibition is greater than or equal to 75%),,< 100,C (% inhibition is greater than or equal to 25% and less than 50%),1000 to 10000,,,,,
C[C@@H]1CN(Cc2cccc(OC(F)(F)F)c2)CCN1C(=O)Oc1cncc(N)c1,A (% inhibition is greater than or equal to 75%),,,D (% inhibition is greater than or equal to 0% and less than 25%),,,,,,
C[C@@H]1CN(Cc2cc(F)cc(C(F)(F)F)c2)CCN1C(=O)Oc1cncc(C#N)c1,A (% inhibition is greater than or equal to 75%),,< 100,A (% inhibition is greater than or equal to 75%),< 100,,,,,
Cc1cc(OC(C)C)ccc1CN1CCN(C(=O)Oc2cncc(F)c2)CC1,A (% inhibition is greater than or equal to 75%),,< 100,A (% inhibition is greater than or equal to 75%),100 to 1000,,,,,
COc1ccc(CN2CCN(C(=O)Oc3cncc(F)c3)CC2)cc1C(F)(F)F,A (% inhibition is greater than or equal to 75%),,< 100,A (% inhibition is greater than or equal to 75%),< 100,,,,,

Compound,FAAH (human) % inh. 1 μM [1],MAGL (human) % inh. (50 μM) [2],IC50 [1] [nM],MAGL (human) % inh. 1 μM [2],IC50 [2] [nM],MAGL (mouse) % inh. 5 mg/kg [3],FAAH (mouse) % inh. 5 mg/kg [4],FAAH (human) % inh. (10 μM) ([1]; 10 μM (stated in cell instead of 1 μM)),FAAH (human) % inh. (50 μM) ([1]; 50 μM (stated in cell instead of 1 μM)),MAGL (human) % inh. (10 μM) [2]
CCOc1cc(CN2CCN(C(=O)Oc3cncc(F)c3)CC2)ccc1Cl,A (% inhibition is greater than or equal to 75%),,,A (% inhibition is greater than or equal to 75%),,,,,,
O=C(Oc1cncc(F)c1)N1CCN(Cc2cc(Cl)ccc2C(F)(F)F)CC1,A (% inhibition is greater than or equal to 75%),,< 100,A (% inhibition is greater than or equal to 75%),< 100,,,,,
CC(C)Oc1cc(CN2CCN(C(=O)Oc3cncc(N)c3)CC2)ccc1Cl,A (% inhibition is greater than or equal to 75%),,< 100,A (% inhibition is greater than or equal to 75%),100 to 1000,D (% inhibition is greater than or equal to 0% and less than 25%),A (% inhibition is greater than or equal to 75%),,,
C[C@@H]1CN(Cc2cnccc2C(F)(F)F)CCN1C(=O)Oc1cncc(F)c1,A (% inhibition is greater than or equal to 75%),,,,,,,,,B (10 μM) (% inhibition is greater than or equal to 50% and less than 75%)
C[C@@H]1CN(Cc2ccc(Cl)c(C(N)=O)c2)CCN1C(=O)Oc1cncc(C(N)=O)c1,A (% inhibition is greater than or equal to 75%),,,,,,,,,C (10 μM) (% inhibition is greater than or equal to 25% and less than 50%)
N#Cc1cncc(OC(=O)N2CCN(Cc3cc(Cl)ccc3C(F)(F)F)CC2)c1,A (% inhibition is greater than or equal to 75%),,< 100,A (% inhibition is greater than or equal to 75%),< 100,,,,,
C[C@@H]1CN(Cc2cnccc2C(F)(F)F)CCN1C(=O)Oc1cncc(C#N)c1,A (% inhibition is greater than or equal to 75%),,< 100,A (% inhibition is greater than or equal to 75%),1000 to 10000,D (% inhibition is greater than or equal to 0% and less than 25%),A (% inhibition is greater than or equal to 75%),,,
Cc1c(CN2CCN(C(=O)Oc3cncc(C(N)=O)c3)CC2)cccc1C(F)(F)F,A (% inhibition is greater than or equal to 75%),,,A (% inhibition is greater than or equal to 75%),,,,,,
C[C@@H]1CN(Cc2cc(Cl)ccc2C(F)(F)F)CCN1C(=O)Oc1cncc(C#N)c1,A (% inhibition is greater than or equal to 75%),,< 100,A (% inhibition is greater than or equal to 75%),100 to 1000,,,,,
CCOc1cc(OC2CCN(C(=O)Oc3cncc(C(N)=O)c3)CC2)ccc1Cl,A (% inhibition is greater than or equal to 75%),,< 100,A (% inhibition is greater than or equal to 75%),< 100,A (% inhibition is greater than or equal to 75%),A (% inhibition is greater than or equal to 75%),,,
C[C@@H]1CN(Cc2cc(F)cc(C(F)(F)F)c2)CCN1C(=O)Oc1cncc(F)c1,A (% inhibition is greater than or equal to 75%),,< 100,,100 to 1000,,,,,A (10 μM) (% inhibition is greater than or equal to 75%)
C[C@@H]1CN(Cc2cc(Cl)ccc2C(F)(F)F)CCN1C(=O)Oc1cncc(F)c1,A (% inhibition is greater than or equal to 75%),,,,,,,,,A (10 μM) (% inhibition is greater than or equal to 75%)
NC(=O)c1cncc(OC(=O)N2CCN(Cc3cnccc3C(F)(F)F)CC2)c1,A (% inhibition is greater than or equal to 75%),,,,,,,,,A (10 μM) (% inhibition is greater than or equal to 75%)
O=C(Oc1cncc(F)c1)N1CCN(Cc2cnccc2C(F)(F)F)CC1,A (% inhibition is greater than or equal to 75%),,< 100,A (% inhibition is greater than or equal to 75%),100 to 1000,,,,,
Cc1c(F)cncc1OC(=O)N1CCN(Cc2cc(Cl)ccc2C(F)(F)F)CC1,A (% inhibition is greater than or equal to 75%),,< 100,A (% inhibition is greater than or equal to 75%),1000 to 10000,,,,,
NC(=O)c1cncc(OC(=O)N2CCN(Cc3ccc(Cl)c(C(N)=O)c3)CC2)c1,A (% inhibition is greater than or equal to 75%),,,C (% inhibition is greater than or equal to 25% and less than 50%),,,,,,
